Test results reported in patent EP1382597A2, “Steroid receptor modulator compounds and methods” (LIGAND PHARMACEUTICALS, INC., priority 1994, dated 1996).

Target: T1, AR (Rattus norvegicus, UniProt P15207)
T1 construct: from tissue; host or cells: live Sprague-Dawley rats; ventral prostate and seminal vesicles weighed
T1 sequence (P15207 1-902): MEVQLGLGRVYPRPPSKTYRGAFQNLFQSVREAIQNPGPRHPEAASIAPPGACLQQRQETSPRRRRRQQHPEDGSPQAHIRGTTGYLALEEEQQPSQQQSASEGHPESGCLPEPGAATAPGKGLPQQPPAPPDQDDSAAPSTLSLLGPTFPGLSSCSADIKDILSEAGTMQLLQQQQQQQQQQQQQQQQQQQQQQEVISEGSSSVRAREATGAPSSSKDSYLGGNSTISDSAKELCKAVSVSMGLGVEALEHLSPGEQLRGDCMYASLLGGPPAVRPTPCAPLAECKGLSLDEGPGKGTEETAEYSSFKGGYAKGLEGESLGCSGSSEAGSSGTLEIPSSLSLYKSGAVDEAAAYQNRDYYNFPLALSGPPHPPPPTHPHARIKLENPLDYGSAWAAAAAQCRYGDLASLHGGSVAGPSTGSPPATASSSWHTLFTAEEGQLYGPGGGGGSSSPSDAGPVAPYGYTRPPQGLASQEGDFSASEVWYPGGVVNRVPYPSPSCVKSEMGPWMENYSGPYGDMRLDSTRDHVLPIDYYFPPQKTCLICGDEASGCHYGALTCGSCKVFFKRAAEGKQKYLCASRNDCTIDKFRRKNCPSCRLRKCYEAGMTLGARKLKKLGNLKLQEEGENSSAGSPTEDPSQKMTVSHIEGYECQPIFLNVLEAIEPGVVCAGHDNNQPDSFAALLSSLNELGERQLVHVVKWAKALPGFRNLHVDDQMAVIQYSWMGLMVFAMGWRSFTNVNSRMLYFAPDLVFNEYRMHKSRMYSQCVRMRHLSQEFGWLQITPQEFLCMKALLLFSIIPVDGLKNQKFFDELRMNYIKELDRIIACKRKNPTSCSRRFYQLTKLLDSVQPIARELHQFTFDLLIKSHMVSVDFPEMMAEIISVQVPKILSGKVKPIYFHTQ
Assay: Immature castrated male rat model (antiandrogen activity)
Assay type: in vivo, rats (Sprague-Dawley)
Settings: TP versus free testosterone

## CCC(=O)O[C@H]1CC[C@H]2[C@@H]3CCC4=CC(=O)CC[C@]4(C)[C@H]3CC[C@]12C [TP, Testosterone Propionate]
  potency relative to free T: 10-30 fold
